The values below come from PubChem BioAssay AID2252 (Southern Research Specialized Biocontainment Screening …, 2010).

The subject of the experiment is THP-1 viability, CellTiter-Glo luminescence, 72 h. As to the kind of experiment: PubChem AID 2252.
As to `CC(C)(C)c1nnc(N/N=C/c2cc(Br)ccc2O)n(N)c1=O`, the EC50 was 0.38 µM. For the molecule `O=C(N/N=C/c1ccc([N+](=O)[O-])o1)C1CC1`, the EC50 was 30.8 µM.

Consider `O=C(Nc1cccnc1)c1ccc([N+](=O)[O-])o1`, for which the EC50 was 8.83 µM. As for `O=C(NNC(=S)Nc1ccc(Cl)c(Cl)c1)c1ccccn1`, the EC50 is 1.89 µM.
